# Values joined by “and” are separate entries in the source; they are usually repeats but may differ in a detail not shown here. Equal values may be shown once. The entries are a selection whose mix differs from that of the whole data set. Records with an inconclusive call do not appear. Active and inactive are the calls of the source. Calls come from the whole dose curve; as a rule, active = well fitted inhibition curve with a large enough effect (not every such curve was filed as active); inconclusive = small, poorly fitted or top-dose-only effect, or another doubt; inactive = no such curve, though single readings can be large or run the other way.
# By UniProt entry, the sequences of proteins in these tests, tags left out. Where a name states a change or a piece, a line headed by the entry shows the natural chain unless it says otherwise.
# UniProt P00352: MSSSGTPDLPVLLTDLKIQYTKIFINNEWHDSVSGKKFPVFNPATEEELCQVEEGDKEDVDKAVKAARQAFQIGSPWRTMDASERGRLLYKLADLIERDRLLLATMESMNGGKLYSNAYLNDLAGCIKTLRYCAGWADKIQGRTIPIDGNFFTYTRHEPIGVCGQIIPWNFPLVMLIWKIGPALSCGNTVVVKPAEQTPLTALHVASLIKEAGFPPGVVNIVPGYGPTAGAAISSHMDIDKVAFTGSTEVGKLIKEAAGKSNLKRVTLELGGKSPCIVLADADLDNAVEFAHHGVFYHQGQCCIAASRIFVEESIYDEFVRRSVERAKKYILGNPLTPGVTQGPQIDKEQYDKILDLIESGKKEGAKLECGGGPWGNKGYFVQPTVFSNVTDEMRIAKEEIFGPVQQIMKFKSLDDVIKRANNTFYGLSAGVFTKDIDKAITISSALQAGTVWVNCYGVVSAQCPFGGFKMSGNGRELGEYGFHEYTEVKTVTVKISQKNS
# Target: Aldehyde dehydrogenase 1A1 (Homo sapiens) (UniProt P00352)
# Experiment: qHTS Assay for Inhibitors of Aldehyde Dehydrogenase 1 (ALDH1A1);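 note: plate controls were no enzyme wells and a reference inhibitor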
# Conditions: Purified ALDH1A1, NADH fluorescence, propionaldehyde substrate
structure (smiles),measurement,setting,value
Cc1cc(NS(=O)(=O)c2ccc(N)cc2)no1,"activity, negative = inhibition",at 20.9 µM (top of the series),inactive: 8.02%
same,"activity, negative = inhibition",at 75.3 µM (top of the series),inactive: 3.91% and inactive: 4.8%
